## Yeast mating assay B: variants of the scFv Ab-14

Source: Li et al. 2023 (doi:10.1038/s41467-023-39022-2), MIT Lincoln Laboratory and A-Alpha Bio; data file from the FLAb repository.

Antigen: PDVDLGDISGINAS, a 14-residue peptide of the SARS-CoV-2 spike HR2 region.

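The parent was found by panning a naive human phage display library on the peptide. These sequences belong to a second round, designed from the earlier measurements on random variants of the parent. Group labels follow the data file (En: ensemble of fine-tuned language models; HC: hill climbing; Gen: genetic algorithm; Gibbs: Gibbs sampling; a sequence that several methods proposed may carry one label only). The scFvs were displayed on barcoded MATa yeast, the peptide on MATalpha yeast. Mating (16 h, 30 °C) was followed by selection of diploids and sequencing of their barcodes. The ratio of observed to expected reads was calibrated, replicate by replicate, on BCL2-family standards whose Kd was known from biolayer interferometry. Each pool was mated in six replicate cultures.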

Each scFv is VH, a 15-residue (Gly4Ser)3 linker, VL, as in the parent Ab-14, and differs from it in the CDRs of the heavy chain only.
VH: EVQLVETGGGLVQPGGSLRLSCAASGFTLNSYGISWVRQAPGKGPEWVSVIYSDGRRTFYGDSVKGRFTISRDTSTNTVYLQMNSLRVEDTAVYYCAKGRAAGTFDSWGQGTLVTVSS
VL: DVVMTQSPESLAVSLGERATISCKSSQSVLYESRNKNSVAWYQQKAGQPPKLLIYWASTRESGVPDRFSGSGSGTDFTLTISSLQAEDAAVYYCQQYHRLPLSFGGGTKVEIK

Each variant is given by its three heavy chain CDRs, as the data file delimits them; those of the parent are GFTLNSYGIS, VIYSDGRRTFYGDSVK, GRAAGTFDS.
Variants here have more than six changes.
Affinities are written as log10 Kd with Kd in nM; a lower number is a better binder.
Averages over replicates are reported, and they cover detected replicates only.
A pair that was not seen in that replicate is written "ND"; this usually means weak binding, but a binder can also be missed.
Entries are sorted by rising average, undetected variants last.
The authors averaged sequences with at least three values out of six and counted those with two or fewer as poor binders.

Variant GFGLSEYGIS / VIYADGMRTSYSNSVK / GALAGTFDE [En_Gibbs] gave -1.00, -0.66, -0.63, -0.90, -0.98, -0.88 (mean -0.84). Variant GFNLDEYGIS / VIYADGQRTFYADSVK / GEHAGTFDT [En_HC] showed -0.32, -0.59, -0.76, -0.87, -0.90, -0.67 (mean -0.69). For GFDLNEYGIS / VIYADGLRTFYTDSVK / GQLAGTFDT [En_HC], the assay gave -0.26, -0.99, -0.63, -0.91, -0.97, -0.30 (mean -0.68). Variant GFDLNEYGIS / VIYADGRRTFYVDSVK / GEVAGTFDV [En_HC] showed -0.63, -0.65, -0.61, -0.92, -0.66, -0.49 (mean -0.66). Variant GFDLDEYGIS / VIYADGKRTAYSDSVK / GQNAGTFDV [En_Gen] showed -0.08, -0.48, -0.82, -0.93, -0.54, -0.61 (mean -0.58). Variant GFDLNEYGIS / VIYADGMRTFYADSVK / GNTAGTFLS [En_HC] showed -0.71, -0.23, -0.74, -0.63, -0.64, -0.50 (mean -0.58). Variant GFDLNEYGIS / VIYADGKRTSYADSVK / GNVAGTFDV [En_Gen] gave ND, -0.53, ND, ND, ND, -0.55 (mean -0.54). With GFDLNEYGIS / VIYADGRRTFYIDSVK / GQIAGTFDQ [En_HC] the result was -0.32, -0.40, -0.70, -0.82, -0.68, -0.33 (mean -0.54). Variant GFDLNEYGIS / VIYADGVRTAYSDKVK / GNNAGTFDV [En_Gen] showed -0.60, -0.36, -0.50, -0.53, -0.61, -0.49 (mean -0.52).

Variant GFDLNEYGIS / VIYADGQRTAYVDSVK / GEVAGTFDV [En_Gen] gave -0.41, -0.50, -0.44, -0.43, -0.58, -0.53 (mean -0.48). With GFDLEEYGIS / VIYADGVRTAYADSVK / GNNAGTFDV [En_Gen] the result was -0.41, -0.68, -0.52, -0.49, -0.32, -0.42 (mean -0.47). With GFDLNEYGIS / VIYADGSRTFYADSVK / GEVAGTFDQ [En_HC] the result was -0.31, -0.57, -0.21, -0.68, -0.36, -0.45 (mean -0.43). Variant GFDLDEYGIS / VIYADGQRTAYADSVK / GNEAGTFDV [En_Gen] gave -0.40, -0.27, -0.59, -0.56, -0.46, -0.11 (mean -0.40). With GFDLEDYGIS / VIYADGKRTAYSDSVK / GEVAGTFDV [En_Gen] the result was -0.24, -0.50, 0.55, -0.46, -0.78, -0.75 (mean -0.36). Variant GFDLNEYGIS / VIYADGRRTFYADSVK / GNEAGTFDV [En_Gen] showed -0.21, -0.60, -0.34, -0.39, -0.36, -0.19 (mean -0.35). With GFDLNEYGIS / VIYADGSRTAYADSVK / GENAGTFDT [En_Gen] the result was -0.04, -0.52, -0.47, -0.36, -0.22, -0.12 (mean -0.29). Variant GFSIDEYGIS / VIYADGARAFYADKVK / GQEVGDLIT [En_Gibbs] gave -0.27, -0.14, -0.42, -0.47, -0.37, -0.02 (mean -0.28). With GFDLEEMGIN / VIYADGSRKVYTDAVK / GEVSGDFDK [En_Gibbs] the result was ND, ND, ND, -0.16, ND, ND.

With GFDLNEYGIS / VIYADGRRTFYADKVK / GENAGTFDV [En_HC] the result was -0.27, -0.13, -0.02, -0.29, -0.06, 0.07 (mean -0.11). Variant GFDLDEYGIS / VIYADGMRTAYADSVK / GNEAGTFDT [En_Gen] gave 0.29, -0.05, -0.23, -0.51, 0.13, 0.09 (mean -0.05). Variant GFDIEEYGIS / VIYADGVRTMYTPNVK / GNILGLAMT [En_Gibbs] gave 1.13, -0.04, 0.54, 0.52, -0.21, 0.49 (mean 0.41). With GFDLNEYGIS / VIYADGMRTYYADSVK / GQNAGTFDI [En_Gen] the result was 0.58, 0.44, 0.49, 0.16, 0.24, 1.31 (mean 0.54). Variant GFDLNEYGIS / VIYADGRRTFYADSVK / GNVAGTFVS [En_HC] gave 1.10, 1.22, 1.00, 0.74, 0.76, 0.61 (mean 0.90). Variant GFDLNEYGIS / VIYADGSRTFYADSVK / GEEAGSFDQ [En_HC] gave 1.11, 1.21, 1.50, 1.11, 1.27, 2.05 (mean 1.38). With GFDLNEYGIS / VIYADGVRTAYVDSVK / GNQAGTFDI [En_Gen] the result was 1.13, ND, ND, 2.42, ND, 2.32 (mean 1.96). For GENINEYGIS / VIYADGRRTAYAEDVK / GQSGGTIDV [En_Gibbs], the assay gave ND, ND, ND, ND, 2.69, ND. Variant GQSLEEYGIS / VIYADGQRNAAADEVK / GENAGTFDI [En_Gibbs] gave ND, ND, ND, ND, ND, ND.

Variant GFDLNEYGIS / VIYADGMRTAYADSVK / GNEAGTFDQ [En_Gen] showed ND, ND, ND, ND, ND, ND. With GEQLEEYGIS / VIYADGRRTAYSQSVK / GLNGGIIDV [En_Gibbs] the result was ND, ND, ND, ND, ND, ND. With GFGLEEYGIS / VIYADGMRKSYAGKVK / GRLSGTVIM [En_Gibbs] the result was ND, ND, ND, ND, ND, ND. With GFKIDEYGIS / VIYADGHRTAYSEQVK / GDNMGFMVE [En_Gibbs] the result was ND, ND, ND, ND, ND, ND. Variant GFDLDEEGIS / VIYADGMRTAYAQKVK / GQETDTNVT [En_Gibbs] showed ND, ND, ND, ND, ND, ND. Variant GFDLNEYGVS / VIYADGQRTYYTESVK / GKVGDLLMA [En_Gibbs] gave ND, ND, ND, ND, ND, ND.

3 of these entries, quoted again:

For GFDLNEYGIS / VIYADGQRTAYVDSVK / GEVAGTFDV [En_Gen], the assay gave -0.41, -0.50, -0.44, -0.43, -0.58, -0.53 (mean -0.48).
For GFDLNEYGIS / VIYADGVRTAYSDKVK / GNNAGTFDV [En_Gen], the assay gave -0.60, -0.36, -0.50, -0.53, -0.61, -0.49 (mean -0.52).
For GQSLEEYGIS / VIYADGQRNAAADEVK / GENAGTFDI [En_Gibbs], the assay gave ND, ND, ND, ND, ND, ND.

Of ten entries with the parent sequence, four were seen in most replicates (averages 0.34 to 2.37), three in one and three in none, so single entries are noisy.
A sequence measured in both rounds can read differently, since the two assays cover different ranges.
Three control strains display no target. For all heavy chain designs, 1% of the pairings with them gave a signal, with a median of 2.08 and one signal in twenty below 0.84, so weak values seen in few replicates may be background.